Measured values taken from PMC13089524, “Development of SYK NanoBRET cellular target engagement assays for gain–of–function variants” (Frontiers in chemical biology, 2024).

How the values were obtained:
[1] = biological target: SYK(P342T)-NL (Homo sapiens, UniProt P43405, P342T); experiment: NanoBRET cellular target engagement assay in intact live HEK293 cells, SYK(P342T)-NL
[2] = biological target: SYK(S550Y)-NL (Homo sapiens, UniProt P43405, S550Y); experiment: NanoBRET cellular target engagement assay in intact live HEK293 cells, SYK(S550Y)-NL
[3] = biological target: SYK(S550F)-NL (Homo sapiens, UniProt P43405, S550F); experiment: NanoBRET cellular target engagement assay in intact live HEK293 cells, SYK(S550F)-NL

In the case of `c1cn2cc(-c3ccc4cn[nH]c4c3)nc(Nc3ccc(N4CCOCC4)cc3)c2n1` [Entospletinib], the IC50 [1] is reported as 700 ± 120 nM, the IC50 [2] is reported as 95 ± 30 nM and the IC50 [3] is reported as 350 ± 12 nM.
